Test results as given in patent US7375083B2, “Pharmaceutical compositions for prevention of overdose or abuse” (Shire LLC, priority 2003, dated 2008).

Test: Kitchen tests: release of amphetamine by water, acid, base and heat
Conditions: acid (vinegar), base (baking powder and baking soda), heat

SMILES	Amphetamine released after treatment
CC(Cc1ccccc1)NC(=O)CNC(=O)CNC(=O)CN (centres unmarked) [Gly3-Amp, 2-Amino-N-({[(1-methyl-2-phenyl-ethylcarbomyl)-methyl]-carbomyl}-methyl)-acetamide]	no amphetamine was detected
CC(Cc1ccccc1)NC(=O)C(N)CCCCN [L-lysine-d-amphetamine, 2,6-diaminohexanoic acid-(1-methyl-2-phenylethyl)-amide]	no amphetamine was detected
